From PubChem BioAssay AID602481 (Broad Institute, 2012) come the findings set out here.

Only a part is listed here, and it is no random draw. Activity calls are given as the source filed them. No stated cut-off is given here; in the data, active means inhibition above about 40%; inconclusive means no clear call, values can overlap the other calls; inactive means below that.

The subject of this experiment is 7,8-diaminopelargonic acid synthase BioA (Mycobacterium tuberculosis). As to the kind of experiment: M. tuberculosis BioA enzyme inhibitors, primary screen, biochemical, plate reader, single point, HTS (AID 602481). Particulars: purified M. tuberculosis BioA enzyme, at 9.99 µM, stronger effect = higher value.
For the molecule `CCC(=O)N(c1ccccc1)C1(COC)CCN(CCn2nnn(CC)c2=O)CC1`, the inhibition is inactive: -0.0885%. As to `CCC(=O)N(c1ccccc1)C1(COC)CCN(CCc2cccs2)CC1`, the inhibition was inactive: -0.372%.

Broadly, the inhibition is the relative decrease from the control value, in per cent.
